Here are results for 1 compound from patent publication US10227350B2 (Gilead Sciences, Inc., priority 2016, dated 2019).

By UniProt entry, the sequences of proteins in these tests, tags left out. Where a name states a change or a piece, a line headed by the entry shows the natural chain unless it says otherwise.
UniProt P42338: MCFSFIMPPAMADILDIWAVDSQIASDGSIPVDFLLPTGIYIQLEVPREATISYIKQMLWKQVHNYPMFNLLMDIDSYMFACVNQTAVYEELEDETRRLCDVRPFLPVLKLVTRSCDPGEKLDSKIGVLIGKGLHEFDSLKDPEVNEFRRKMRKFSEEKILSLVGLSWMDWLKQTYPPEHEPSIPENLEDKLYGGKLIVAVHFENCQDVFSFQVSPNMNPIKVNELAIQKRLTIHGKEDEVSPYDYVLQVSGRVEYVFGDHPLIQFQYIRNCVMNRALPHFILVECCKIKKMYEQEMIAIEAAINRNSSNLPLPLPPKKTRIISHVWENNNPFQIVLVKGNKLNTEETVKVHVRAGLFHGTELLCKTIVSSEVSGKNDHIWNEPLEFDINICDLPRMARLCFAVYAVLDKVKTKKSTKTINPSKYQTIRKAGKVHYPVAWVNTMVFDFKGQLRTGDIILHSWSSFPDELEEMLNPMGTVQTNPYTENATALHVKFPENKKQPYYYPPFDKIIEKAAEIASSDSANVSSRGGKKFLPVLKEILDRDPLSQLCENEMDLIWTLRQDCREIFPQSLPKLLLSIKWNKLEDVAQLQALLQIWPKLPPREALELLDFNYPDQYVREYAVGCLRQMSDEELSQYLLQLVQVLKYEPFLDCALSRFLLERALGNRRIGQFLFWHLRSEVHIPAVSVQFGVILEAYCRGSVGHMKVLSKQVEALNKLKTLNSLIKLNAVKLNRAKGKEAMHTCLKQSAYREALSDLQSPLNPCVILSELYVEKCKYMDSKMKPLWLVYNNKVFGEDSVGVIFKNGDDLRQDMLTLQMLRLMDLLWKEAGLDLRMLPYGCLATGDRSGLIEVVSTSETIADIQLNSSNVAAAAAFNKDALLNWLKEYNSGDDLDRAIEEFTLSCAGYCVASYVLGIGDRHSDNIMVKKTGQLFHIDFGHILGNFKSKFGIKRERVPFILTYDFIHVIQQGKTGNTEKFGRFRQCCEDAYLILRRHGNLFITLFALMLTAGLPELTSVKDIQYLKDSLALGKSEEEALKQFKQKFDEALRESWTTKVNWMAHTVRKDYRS

This assay concerns the target PI3Kβ (Homo sapiens (Human), UniProt P42338). The assay is described as follows: TR-FRET enzymatic activity assay, PI3Kβ. Type of assay: biochemical. The note with it: 2× Km ATP, 2 μM PIP2, 30 minutes at 25° C., read-out: IC50-PIP-Beta. How it is done:
The compounds of formula (I) were characterized for their enzymatic activity against the PI3K isoforms. The activities were measured using a time-resolved fluorescence resonance energy transfer (TR-FRET) assay. TR-FRET monitored the formation of 3,4,5-inositol triphosphate molecule that competed with fluorescently labeled PIPS for binding to the GRP-1 pleckstrin homology domain protein.
Class I PI3K isoforms were expressed and purified as heterodimeric recombinant proteins. All assay reagents and buffers for the TR-FRET assay were purchased from Millipore. […] The compounds were added to the assay solution and incubated for 30 minutes at 25° C.
For orientation: Time-resolved FRET reads energy transfer from a long-lived donor to a nearby acceptor.

As usually defined, the IC50 is the point on the concentration scale where inhibition reaches its midpoint. `CCCc1nc2c(C(N)=O)cc(-c3ccnc(N)c3F)cc2n1-c1ccnc2c(F)ccc(F)c12` [Example 24, 6-(2-aminopyridin-4-yl)-1-(5,8-difluoroquinolin-4-yl)-2-methylbenzimidazole-4-carboxamide]: the IC50 amounted to 22 nM.
